Measured values reported in PubChem BioAssay (NCI).
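Dose response: 5 concentrations. Exposure: 48 h. Format: 96-well plates. Endpoint: linear interpolation; highest concentration if not reached. GI50 marks 50% less growth. TGI denotes the concentration required for complete inhibition of growth.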

Columns and labels:
Experiment in all cases: growth of human tumour cells (NCI), 48 h
PC-3 prostate = system: PC-3 prostate
UACC-257 melanoma = system: UACC-257 melanoma
TK-10 renal = system: TK-10 renal
OVCAR-5 ovarian = system: OVCAR-5 ovarian
SNB-19 CNS = system: SNB-19 CNS
EKVX NSCLC = system: EKVX NSCLC
HCC-2998 colon = system: HCC-2998 colon
XF 498 CNS = system: XF 498 CNS
SF-268 CNS = system: SF-268 CNS
DLD-1 colon = system: DLD-1 colon
HL-60(TB) leukemia = system: HL-60(TB) leukemia
RXF 393 renal = system: RXF 393 renal
SK-MEL-28 melanoma = system: SK-MEL-28 melanoma
M14 melanoma = system: M14 melanoma
RPMI-8226 leukemia = system: RPMI-8226 leukemia
NCI-H460 lung = system: NCI-H460 lung
OVCAR-3 ovarian = system: OVCAR-3 ovarian
IGROV1 ovarian = system: IGROV1 ovarian
MDA-N = system: MDA-N
HCT-15 colon = system: HCT-15 colon
SF-539 CNS = system: SF-539 CNS
DMS 114 small cell lung = system: DMS 114 small cell lung
M19-MEL melanoma = system: M19-MEL melanoma
786-0 renal = system: 786-0 renal
SN12C renal = system: SN12C renal
MOLT-4 leukemia = system: MOLT-4 leukemia
HOP-18 NSCLC = system: HOP-18 NSCLC
ACHN renal = system: ACHN renal
DU-145 prostate = system: DU-145 prostate
KM12 colon = system: KM12 colon
UO-31 renal = system: UO-31 renal
CAKI-1 renal = system: CAKI-1 renal
MALME-3M melanoma = system: MALME-3M melanoma
DMS 273 small cell lung = system: DMS 273 small cell lung
U251 CNS = system: U251 CNS
SNB-75 CNS = system: SNB-75 CNS
SK-OV-3 ovarian = system: SK-OV-3 ovarian
NCI-H226 lung = system: NCI-H226 lung
OVCAR-8 ovarian = system: OVCAR-8 ovarian
UACC-62 melanoma = system: UACC-62 melanoma
NCI-H322M lung = system: NCI-H322M lung
COLO 205 colon = system: COLO 205 colon
OVCAR-4 ovarian = system: OVCAR-4 ovarian
SNB-78 CNS = system: SNB-78 CNS
SW-620 colon = system: SW-620 colon
HT29 colon = system: HT29 colon
NCI-H522 lung = system: NCI-H522 lung
SF-295 CNS = system: SF-295 CNS
BT-549 breast = system: BT-549 breast

## O=NN(CCSCCCl)C(=O)NC1CCCCC1
PC-3 prostate
  GI50: 35.1 µM
  TGI: > 100 µM
UACC-257 melanoma
  GI50: 36.3 µM
  TGI: 71.3 µM
TK-10 renal
  GI50: > 100 µM
  TGI: > 100 µM
OVCAR-5 ovarian
  GI50: 51.5 µM
  TGI: 84.1 µM
SNB-19 CNS
  GI50: 55.1 µM
  TGI: > 100 µM
EKVX NSCLC
  GI50: > 100 µM
  TGI: > 100 µM
HCC-2998 colon
  GI50: 42 µM
  TGI: 94.8 µM
XF 498 CNS
  GI50: 24.9 µM
  TGI: 62.5 µM
SF-268 CNS
  GI50: 24.8 µM
  TGI: 68.7 µM
DLD-1 colon
  GI50: 55.1 µM
  TGI: > 100 µM
HL-60(TB) leukemia
  GI50: 5.23 µM
  TGI: 40.2 µM
RXF 393 renal
  GI50: 24.7 µM
  TGI: 47.7 µM
SK-MEL-28 melanoma
  GI50: 73.6 µM
  TGI: > 100 µM
M14 melanoma
  GI50: 34.9 µM
  TGI: > 100 µM
RPMI-8226 leukemia
  GI50: 24 µM
  TGI: 70 µM
NCI-H460 lung
  GI50: 4.75 µM
  TGI: 74.9 µM
OVCAR-3 ovarian
  GI50: 38.6 µM
  TGI: > 100 µM
IGROV1 ovarian
  GI50: 79 µM
  TGI: > 100 µM
MDA-N
  GI50: 39.2 µM
  TGI: > 100 µM
HCT-15 colon
  GI50: 23.9 µM
  TGI: 67.7 µM
SF-539 CNS
  GI50: 24.4 µM
  TGI: 55.5 µM
DMS 114 small cell lung
  GI50: 13 µM
  TGI: 89.2 µM
M19-MEL melanoma
  GI50: 34.5 µM
  TGI: 79 µM
786-0 renal
  GI50: 23.4 µM
  TGI: 73.2 µM
SN12C renal
  GI50: 28.9 µM
  TGI: 93.6 µM
MOLT-4 leukemia
  GI50: 3.96 µM
  TGI: 59.3 µM
HOP-18 NSCLC
  GI50: 68.6 µM
  TGI: > 100 µM
ACHN renal
  GI50: 6.78 µM
  TGI: 61.9 µM
DU-145 prostate
  GI50: 68.3 µM
  TGI: > 100 µM
KM12 colon
  GI50: 61.1 µM
  TGI: > 100 µM
UO-31 renal
  GI50: 26.8 µM
  TGI: 61.5 µM
CAKI-1 renal
  GI50: 16 µM
  TGI: 58.2 µM
MALME-3M melanoma
  GI50: 42.9 µM
  TGI: 94.6 µM
DMS 273 small cell lung
  GI50: 15.3 µM
  TGI: 62.5 µM
U251 CNS
  GI50: 20 µM
  TGI: 73.1 µM
SNB-75 CNS
  GI50: 21.8 µM
  TGI: 66.3 µM
SK-OV-3 ovarian
  GI50: 56 µM
  TGI: > 100 µM
NCI-H226 lung
  GI50: 27.6 µM
  TGI: 81.5 µM
OVCAR-8 ovarian
  GI50: 25.3 µM
  TGI: 50.2 µM
UACC-62 melanoma
  GI50: 15.7 µM
  TGI: 59.2 µM
NCI-H322M lung
  GI50: > 100 µM
  TGI: > 100 µM
COLO 205 colon
  GI50: 42.2 µM
  TGI: 93.8 µM
OVCAR-4 ovarian
  GI50: 70 µM
  TGI: > 100 µM
SNB-78 CNS
  GI50: > 100 µM
  TGI: > 100 µM
SW-620 colon
  GI50: 19.4 µM
  TGI: 76.7 µM
HT29 colon
  GI50: 37 µM
  TGI: > 100 µM
NCI-H522 lung
  GI50: 16.1 µM
  TGI: 34.6 µM
SF-295 CNS
  GI50: 22.1 µM
  TGI: > 100 µM
BT-549 breast
  GI50: 17.9 µM
  TGI: 41.2 µM
